## Cyclic peptide permeability, from CycPeptMPDB

PAMPA measures passive passage through an artificial lipid membrane. Permeability is in 10^-6 cm/s, converted from the database's log10 values; higher is more permeable.

| compound | PAMPA (10^-6 cm/s) |
|---|---|
| CC(C)C[C@@H]1C(=O)N[C@@H](Cc2ccccc2)C(=O)N2CCC[C@@H]2C(=O)N(C)[C@H](C)C(=O)N(C)[C@@H](CC(C)C)C(=O)N[C@H](CC(C)C)C(=O)N2CCC[C@@H]2C(=O)N1C | 1.1 |
| CC(C)C[C@@H]1C(=O)N[C@H](CC(C)C)C(=O)N2CCC[C@H]2C(=O)N[C@H](CC(C)C)C(=O)N[C@@H](Cc2ccccc2)C(=O)N2CCC[C@H]2C(=O)N(C)[C@H](C)C(=O)N1C | 3 |
| CCCN1CC(=O)N(C)[C@@H](CC(C)C)C(=O)N[C@H](CC(C)C)C(=O)N2CCC[C@@H]2C(=O)N(C)[C@@H](CC(C)C)C(=O)N[C@@H](Cc2ccccc2)C(=O)N2CCC[C@H]2C1=O | 6.3 |
| CC(C)C[C@@H]1C(=O)N(C)[C@H](CC(C)C)C(=O)N2CCC[C@H]2C(=O)N(C)[C@@H](CC(C)C)C(=O)N[C@@H](Cc2ccccc2)C(=O)N[C@@H](C)C(=O)N1C | 6.9 |
| CC(C)C[C@@H]1C(=O)N2CCC[C@H]2C(=O)N[C@H](CC(C)C)C(=O)N[C@@H](Cc2ccccc2)C(=O)N2CCC[C@@H]2C(=O)N(C)[C@@H](C)C(=O)N[C@H](CC(C)C)C(=O)N1C | 1 |
| CC(C)C[C@@H]1NC(=O)[C@H]2CCCN2C(=O)[C@@H](CC(C)C)NC(=O)[C@@H](CC(C)C)NC(=O)[C@@H](C)N(C)C(=O)[C@H](Cc2ccccc2)NC1=O | 0.28 |
| CC(C)C[C@H]1NC(=O)C[C@H](Cc2ccccc2)NC(=O)[C@@H]2CCCN2C(=O)[C@H](Cc2ccccc2)NC(=O)[C@@H](CC(C)C)NC(=O)[C@@H]2CCCN2C(=O)C[C@H](Cc2ccccc2)NC1=O | 1.8 |
| CCCN1CC(=O)N[C@H](CC(C)C)C(=O)N(C)[C@@H](CC(C)C)C(=O)N2CCC[C@H]2C(=O)N(C)[C@@H](CC(C)C)C(=O)N[C@@H](Cc2ccccc2)C(=O)N2CCC[C@H]2C1=O | 6.3 |
| CC(C)C[C@@H]1C(=O)N[C@@H](Cc2ccccc2)C(=O)N[C@H](C)C(=O)N(C)[C@@H](CC(C)C)C(=O)N[C@H](CC(C)C)C(=O)N2CCC[C@@H]2C(=O)N1C | 2.2 |
| CCCN1CC(=O)N(C)[C@@H](CC(C)C)C(=O)N[C@H](CC(C)C)C(=O)N2CCC[C@H]2C(=O)N[C@@H](CC(C)C)C(=O)N[C@@H](Cc2ccccc2)C(=O)N2CCC[C@@H]2C1=O | 0.2 |
| CC(C)C[C@H]1NC(=O)[C@H](CC(C)C)N(C)C(=O)[C@H](C)NC(=O)[C@H]2CCCN2C(=O)[C@H](Cc2ccccc2)NC(=O)[C@H](CC(C)C)N(C)C(=O)[C@@H]2CCCN2C1=O | 6 |
| CC(C)C[C@@H]1NC(=O)[C@@H](C)N(C)C(=O)[C@H](Cc2ccccc2)NC(=O)[C@H](CC(C)C)NC(=O)[C@@H]2CCCN2C(=O)C[C@H](Cc2ccccc2)NC1=O | 1.1 |

Extract of 2 entries:

| compound | PAMPA (10^-6 cm/s) |
|---|---|
| CC(C)C[C@@H]1C(=O)N[C@@H](Cc2ccccc2)C(=O)N2CCC[C@@H]2C(=O)N(C)[C@H](C)C(=O)N(C)[C@@H](CC(C)C)C(=O)N[C@H](CC(C)C)C(=O)N2CCC[C@@H]2C(=O)N1C | 1.1 |
| CC(C)C[C@@H]1NC(=O)[C@@H](C)N(C)C(=O)[C@H](Cc2ccccc2)NC(=O)[C@H](CC(C)C)NC(=O)[C@@H]2CCCN2C(=O)C[C@H](Cc2ccccc2)NC1=O | 1.1 |

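The data file gives no further conditions (lipid, pH, time, direction or concentration), and values from different papers need not be comparable. Other peptides of the study may be missing here. Entries at the database's floor value (log10 P of -10) are not listed.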

Collected by the curators of CycPeptMPDB (Li et al. 2023) from Townsend et al. 2020, doi:10.26434/chemrxiv.13335941.v1.